Experimental data taken from PubChem BioAssay AID1499 (Sanford-Burnham Center for Chemical Genomics, 2009).
This is a selection; strong and weak results do not stand in their true shares. The source made the active and inactive calls.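 The calls were made as follows: active = 10 µM primary screen giving 50% or more activity, confirmed by 40% or more on retest at that dose; inactive = the rest.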

Sequences of proteins named here, by UniProt entry; tags and fusion partners are left off.
UniProt P05107, whole entry, looked up: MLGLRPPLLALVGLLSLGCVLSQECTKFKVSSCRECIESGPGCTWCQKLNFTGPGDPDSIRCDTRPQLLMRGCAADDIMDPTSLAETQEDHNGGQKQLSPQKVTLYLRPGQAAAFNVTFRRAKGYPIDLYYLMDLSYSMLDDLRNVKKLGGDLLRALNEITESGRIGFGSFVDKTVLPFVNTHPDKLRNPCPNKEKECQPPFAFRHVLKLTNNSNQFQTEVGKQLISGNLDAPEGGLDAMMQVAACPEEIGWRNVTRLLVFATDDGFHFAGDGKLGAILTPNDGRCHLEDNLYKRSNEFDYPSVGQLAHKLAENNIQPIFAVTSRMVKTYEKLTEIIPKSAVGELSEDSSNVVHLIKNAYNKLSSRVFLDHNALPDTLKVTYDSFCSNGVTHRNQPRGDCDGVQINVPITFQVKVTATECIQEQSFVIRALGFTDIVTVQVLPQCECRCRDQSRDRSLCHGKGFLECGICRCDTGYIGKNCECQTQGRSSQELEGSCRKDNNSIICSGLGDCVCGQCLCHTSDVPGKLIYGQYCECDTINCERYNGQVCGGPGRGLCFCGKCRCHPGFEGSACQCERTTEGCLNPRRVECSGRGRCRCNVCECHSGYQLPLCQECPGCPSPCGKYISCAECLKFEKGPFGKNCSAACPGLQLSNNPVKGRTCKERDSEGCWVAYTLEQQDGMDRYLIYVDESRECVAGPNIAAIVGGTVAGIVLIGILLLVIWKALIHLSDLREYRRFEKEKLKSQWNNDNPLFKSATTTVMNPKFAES

These compounds were tested against Integrin beta-2 (Homo sapiens) + Integrin alpha-M (Homo sapiens) (UniProt P05107+P11215) (assay: enhancers of CD11b/CD18 adhesion to fibrinogen, primary screen, K562 cells, luminescence (AID 1499)). Details: ATPlite luminescence, at 10 µM, active compounds read high.
With `Cc1nc2ccc3ccccc3c2s1.O=[N+]([O-])c1cc([N+](=O)[O-])c(O)c([N+](=O)[O-])c1` the activation was inactive: -1%. `Cc1cc(C)cc(OP(C)(=O)Nc2ccc(C)cc2C)c1` (stereo not given) was tested, and the activation was inactive: 3.1%. For `Cc1cc(C)cc(OP(C)(=O)Nc2ccccn2)c1` (stereo not given), the activation was inactive: -1.5%. For `Cc1ccc(C)c(NP(C)(=O)Oc2ccccc2)c1` (stereo not given), the activation was inactive: 0.1%. In the case of `Cc1ccc(NP(C)(=O)Oc2ccccc2)c(C)c1` (stereo not given), the activation is reported as inactive: -6.5%. With `COc1ccccc1OP(C)(=O)Nc1ccc(C)cc1` (stereo not given) the activation was inactive: -2.6%. In the case of `COc1ccc(OP(C)(=O)Nc2cccc(F)c2)cc1` (stereo not given), the activation is reported as inactive: 1.5%. For `CP(=S)(Nn1cnnc1)Oc1ccccc1` (stereo not given), the activation was inactive: 1.9%. With `Cc1cccc(C)c1OP(C)(=O)Nc1ccc(SC(F)(F)F)cc1` (stereo not given) the activation was inactive: -5.8%. With `Cc1cc(C)cc(OP(C)(=O)Nc2ccc(SC(F)(F)F)cc2)c1` (stereo not given) the activation was inactive: 0.7%. With `CP(=O)(NC(=O)Nc1ccccc1)Oc1ccccc1` (stereo not given) the activation was inactive: -1.1%. For `CCOP(C)(=S)SCC(=O)NC(C)C(=O)O` (stereo not given), the activation was inactive: -4.1%. With `CCOC(=O)c1ccc(NP(C)(=O)Oc2ccc(OC)cc2)cc1` (stereo not given) the activation was inactive: 3.1%. `CP(=O)(Nc1ccccn1)Oc1ccc(Cl)cc1` (stereo not given) was tested, and the activation was inactive: -2%. In the case of `CCN(CC)CC(O)COC(=O)C(O)(c1ccccc1)C1CCCCC1` (stereo not given), the activation is reported as inactive: -0.7%. With `CP(=O)(Oc1ccccc1)N1CCOC1=O` (stereo not given) the activation was inactive: 0%. In the case of `COc1ccccc1OP(C)(=O)Nc1c(C)n(C)n(-c2ccccc2)c1=O` (stereo not given), the activation is reported as inactive: 0%. In the case of `CC(C)(C)c1ccc(OP(C)(=O)O)cc1`, the activation is reported as inactive: -3.5%. With `CP(=O)(OC12CC3CC(CC(C3)C1)C2)OC12CC3CC(CC(C3)C1)C2` the activation was inactive: -4.3%. In the case of `COc1ccc(OP(C)(=O)Nc2ccccc2Br)cc1` (stereo not given), the activation is reported as inactive: 0%. `COc1ccccc1OP(C)(=O)Nc1ccc(C)c(C)c1` (stereo not given) was tested, and the activation was inactive: -4.2%. For `Cc1nc2ccc3ccccc3c2o1.O=[N+]([O-])c1cc([N+](=O)[O-])c(O)c([N+](=O)[O-])c1`, the activation was inactive: 0.2%. For `CN(C)CCOC(=O)C(O)(c1ccccc1)C1CCCC1` (stereo not given), the activation was inactive: -1.3%. For `COc1ccc(OP(C)(=O)Nc2ccccn2)cc1` (stereo not given), the activation was inactive: 3.7%. With `CP(=O)(Nc1ccccn1)Oc1ccccc1` (stereo not given) the activation was inactive: 2.2%. For `CP(=O)(Nc1ccccc1F)Oc1ccccc1` (stereo not given), the activation was inactive: 2.1%. In the case of `COc1ccc(OP(C)(=O)Nc2cccc(Br)c2)cc1` (stereo not given), the activation is reported as inactive: -6.8%. In the case of `CN(C)CCOC(=O)C(O)(c1ccccc1)C1CCCCC1` (stereo not given), the activation is reported as inactive: -2.1%. With `CCOP(C)(=S)SCC(=O)NC(C)(CC)C(=O)O` (stereo not given) the activation was inactive: -1.3%. `Cc1ccccc1NP(C)(=O)Nc1ccccc1C` was tested, and the activation was inactive: 0.3%.
